Values of other authors, collected in US20240024337A1, “INTERACTION OF SARS-COV-2 PROTEINS WITH MOLECULAR AND […] […] HOST CELLS AND FORMULATIONS TO TREAT COVID-19” (AKSEERA PHARMA CORP., priority 2020, published 2024).

Test system: mouse forebrain tissues
Details: 100 μM; oxygen-glucose deprivation

In the case of `C=C(C)[C@@H]1CCC(C)=C[C@H]1c1c(O)cc(CCCCC)cc1O` [Cannabidiol, 2-[(1R,6R)-3-Methyl-6-(1-methylethenyl)-2-cyclohexen-1-yl]-5-pentyl-1,3-benzenediol], the “attenuation of caspase 9 activation” value is listed as roughly 50%.
